# Source: patent US20150073008A1, “Topical Application of Vinca Alkaloids for the Treatment of Actinic Keratosis” (Merz Pharma GmbH & Co. KGaA, priority 2013, published 2015)
# Assay: Dermal absorption study with human skin (Franz diffusion cells, 3H-API)
# Conditions: different concentrations and formulations (cream, liposomes, hydro-tops)
substance,measurement,value
Vinblastine sulfate hydrate,dermal absorption (in words),good dermal absorption
